INS-1E GSIS act = GLuc luminescence reporter in INS-1E cells, primary screen for activators of glucose-dependent secretion of insulin | INS-1E GLuc reporter insulin secretion, 2-3 h | activation, % at 16.6 µM | 370,000 compounds, 0.61% hits | AID 743287;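 active = lowest replicate activation of at least 40%, so every replicate reaches that level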
ERp5 block = inhibitors of human ERp5; Q15084; ERp5 insulin aggregation, absorbance 650 nm, 90 min; inhibition, % at 9.99 µM; 350,000 compounds, 0.05% hits; AID 651711;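 active = mean replicate inhibition above about 25%, with every replicate also reaching it, limit read from the data, passing the limit was not always enough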
PDI turbidity = PDI (human) enzyme inhibition | P07237 | PDI insulin aggregation turbidity, A650, 90 min | inhibition, % at 10 µM | 350,000 compounds, 0.052% hits;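 active = mean inhibition across replicates of 30% or more, whatever share of single replicates reach that level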
SMARCA2 act = increases SMARCA2 function in MMTV reporter cells; 370,000 compounds, 1% hits; MG213 cells, MMTV-luciferase reporter, dexamethasone, overnight; activation, % at 9.1 µM; in the data active = activation above about 7.8%
Yeast UUG start = yeast start codon fidelity modulation | S. cerevisiae UUG-firefly luciferase reporter, luminescence/redox ratio | activity score, % at 18.7 µM | 0.13% of 350,000 active | AID 602363;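 active means replicate mean at a twofold rise or more, about +100% in these data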;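 further: firefly luciferase made from a UUG start codon reports start codon fidelity; reporter light over untreated wells divided by growth signal over untreated wells; some hits fall short of that in this replicate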
NR1D1 modulator = modulates human Rev-erb alpha binding to DNA; activity, % at 10 µM; AID 1259318; 370,000 compounds, 0.79% hits; Rev-erbα–FITC-DNA binding, fluorescence polarization, 90 min; P20393;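 active = activity above about 14%, limit read from the data; passing the limit was not always enough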
Hits are given with their value; - = inactive; . = not tested or not shown; ! = a repeat was not active. Only some compounds are listed: those with a hit (about 2.1% of all), similar ones and a draw of the others.

SMILES | INS-1E GSIS act | ERp5 block | PDI turbidity | SMARCA2 act | Yeast UUG start | NR1D1 modulator
CCOC(=O)NC(=O)COC(=O)CNC(=O)c1ccc(OCC)c(OCC)c1 | 45.6 | - | - | - | . | -
COc1ccc(OC)c(NC(=O)COC(=O)CNC(=O)c2ccc(OC)c(OC)c2)c1 | . | . | - | - | - | -
CCCN(C)C[C@@H]1Oc2ncc(C#Cc3ccc(OC)cc3)cc2C(=O)N([C@@H](C)CO)C[C@@H]1C | - | - | . | . | - | .
Nc1nc(NCc2ccccc2)nc(NCc2ccccc2)c1[N+](=O)[O-] | 46.2 | . | - | - | - | -
Cc1ccc(CNc2nc(N)c([N+](=O)[O-])c(NCc3ccccc3)n2)cc1 | 126.4 | . | - | - | - | -
Cc1ccccc1S(=O)(=O)NCC[C@@H]1CC[C@@H](NC(=O)Nc2cccc(F)c2)[C@@H](CO)O1 | - | - | . | . | - | .
CC(C)Nc1nc(Cl)nc(N(C#N)CN2C(=O)c3ccccc3C2=O)n1 | - | . | - | 14.4 | . | -
CC(=O)OC[C@H]1O[C@@H](Oc2cc(O)cc3oc(-c4ccc(O)cc4)cc(=O)c23)[C@H](O[C@@H]2O[C@@H](C)[C@H](O)[C@@H](O)[C@H]2O)[C@@H](O)[C@@H]1O | - | - | 39.2 | - | - | -
Cc1cc(NC(=O)COC(=O)c2oc3c(Cl)cccc3c2C)no1 | 64.6 | . | - | - | - | -
Cc1cc(NC(=O)COC(=O)CCS(=O)(=O)c2cc(Cl)ccc2Cl)no1 | 40.6 | - | - | - | - | -
CCCNC(=O)N1[C@@H]2CN(C(=O)c3ccc(F)cc3)c3ccccc3[C@@H]2[C@@H]1CO | - | - | . | . | - | .
Cc1ccc(NCc2cccc(B(O)O)c2)cc1 | 42.8 | - | - | - | - | -
COc1ccc(S(=O)(=O)Nc2ccc3c(c2)CC(=O)N([C@@H](C)CO)C[C@H](C)[C@H](CN(C)C)O3)cc1 | - | - | . | . | - | .
O=C(CCN1CCCCC1)NCC[C@@H]1CC[C@@H](NC(=O)C2CCCC2)[C@@H](CO)O1 | - | - | . | . | - | .
CC1(C(=O)NCc2cccc3ccccc23)CCN1Cc1ccc(OC(F)(F)F)cc1 (stereo not drawn) | 203.3 | - | - | - | . | -
CC1(C(=O)NCc2cccc3ccccc23)CCN1Cc1ccc2ccccc2c1 (stereo not drawn) | - | - | - | - | - | -
CS(=O)(=O)Nc1ccc(C(=O)NCCC2=CCCCC2)cc1 | . | . | - | - | - | -
CS(=O)(=O)N(Cc1ccc(Cl)cc1)c1ccc(C(=O)NCCC2=CCCCC2)cc1 | 79.9 | . | - | - | - | -
CC1OC(OCC2OC(Oc3c(-c4ccc(O)cc4)oc4cc(O)cc(O)c4c3=O)C(O)C(O)C2O)C(O)C(O)C1O (stereo not drawn) | - | - | . | - | - | -
O=c1c(O[C@@H]2O[C@H](CO)[C@@H](O)[C@H](O)[C@H]2O)c(-c2ccc(O)cc2)oc2cc(O)cc(O)c12 | . | . | 37.1 | . | - | .
COc1c(-c2ccc(O)c(O)c2)oc2cc(O)cc(O)c2c1=O | 69.8 | - | . | - | - | -
O=c1c(OC2OC(CO)C(O)C(O)C2OC2OC(CO)C(O)C(O)C2OC2OC(CO)C(O)C(O)C2O)c(-c2ccc(O)c(O)c2)oc2cc(O)cc(O)c12 (stereo not drawn) | - | - | . | - | - | -
C[C@H](CO)N1C[C@H](C)[C@@H](CN(C)C(=O)OCc2ccccc2)OCc2cnnn2CCCC1=O | - | - | . | . | - | .
CCCC#Cc1cnc2c(c1)C(=O)N([C@H](C)CO)C[C@@H](C)[C@H](CN(C)CCC)O2 | - | - | . | . | - | .
CCOc1ccccc1-n1nnnc1SCC(=O)N1CCCC1=O | 51.2 | - | - | - | - | -
SMILES | INS-1E GSIS act | ERp5 block | PDI turbidity | SMARCA2 act | Yeast UUG start | NR1D1 modulator
O=C(Nc1cc(C(F)(F)F)ccc1N1CCOCC1)C1CCCO1 (stereo not drawn) | - | - | - | - | - | -
CC1CC1C(=O)Nc1cc(C(F)(F)F)ccc1N1CCOCC1 (stereo not drawn) | 47.6 | - | - | - | - | -
CCNC(=O)[C@H]1[C@H](CO)[C@H]2Cn3c(ccc(-c4cccc(F)c4)c3=O)[C@H]2N1Cc1cc(F)ccc1F | - | - | . | . | . | .
C[C@@H]1CN([C@@H](C)CO)C(=O)c2cccc(NC(=O)c3nc4ccccc4s3)c2O[C@H]1CN(C)S(=O)(=O)c1ccc(F)cc1 | - | - | . | . | - | .
CSc1ccc(/C=N/N(C)S(=O)(=O)c2ccc(C)cc2)cc1 | 121.3 | - | - | - | - | -
C[C@H](CO)N1C[C@H](C)[C@@H](CN(C)C(=O)c2ccc(F)cc2)Oc2ncc(C#CC3CC3)cc2C1=O | - | - | . | . | - | .
COc1ccc(C)cc1NCc1cc(=O)oc2cc(-c3ccccc3)c(O)cc12 | 107.3 | . | - | - | . | -
Cc1cc(C)cc(NCc2cc(=O)oc3cc(-c4ccccc4)c(O)cc23)c1 | - | . | - | - | - | -
C[C@@H]1O[C@@H](O[C@@H]2C(=O)c3c(O)cc(O)cc3O[C@H]2c2ccc(O)c(O)c2)[C@H](O)[C@H](O)[C@H]1O | - | - | 44.4 | - | - | -
CCCNC(=O)[C@H]1[C@H](CO)[C@H]2Cn3c(ccc(C4=CCCC4)c3=O)[C@H]2N1Cc1ccccc1 | - | - | . | . | . | .
C=CCNC(=O)COc1coc(CN2CCN(C(=O)c3ccco3)CC2)cc1=O | 49.2 | - | - | - | - | -
CNC(=O)COc1coc(CN2CCN(C(=O)c3ccco3)CC2)cc1=O | - | - | - | - | - | -
NC(=O)COC(=O)c1ccccc1Oc1ccccc1 | 46.4 | - | - | - | . | .
NC(=O)NC(=O)COC(=O)c1ccccc1Oc1ccccc1 | . | . | - | - | - | -
O=C(c1ccncc1)N1C[C@@H]2N[C@H](C1)C2c1ccc(/C=C/c2ccccc2)cc1 (stereo partly drawn) | - | - | . | . | . | .
O=C(c1ccc(F)cc1)N1C[C@@H]2N[C@H](C1)C2c1ccc(/C=C/c2ccccc2)cc1 (stereo partly drawn) | 119.2! | - | . | . | . | .
Fc1cccc(CN2C[C@@H]3N[C@H](C2)C3c2ccc(/C=C/c3ccccc3)cc2)c1 (stereo partly drawn) | 471.3! | . | . | . | . | .
Fc1ccc(-c2ccc(C3[C@@H]4CN(Cc5cccc(F)c5)C[C@H]3N4)cc2)cc1 (stereo partly drawn) | 376.2! | - | . | . | . | .
Cc1ccc(-c2ccc([C@@H]3[C@@H]4CN(Cc5ccccc5F)C[C@H]3N4)cc2)cc1 | 82.7 | . | . | . | . | .
COc1ccccc1-c1ccc([C@H]2[C@@H](CO)N(C(=O)NC3CCCCC3)[C@H]2C#N)cc1 | - | - | . | . | - | .
C(=C\c1ccc(C2[C@@H]3CN(Cc4nccs4)C[C@H]2N3)cc1)/c1ccccc1 (stereo partly drawn) | 132.0! | . | . | . | . | .
Cc1ccc(-c2ccc(C3[C@@H]4CN(Cc5cccc(F)c5)C[C@H]3N4)cc2)cc1 (stereo partly drawn) | 997.4 | - | . | . | . | .
Fc1ccc(-c2ccc(C3[C@@H]4CN(Cc5ccccc5)C[C@H]3N4)cc2)cc1 (stereo partly drawn) | 75.4! | - | . | . | . | .

Screening results: PubChem, several laboratories
